Earlier results on 1 substance are cited in patent publication US20230312752A1 (Brown University, priority 2021, published 2023).

The target of the series is CDK2 (Homo sapiens, UniProt P24941). Also noted: key to the marks not given beside the values. The conditions noted are these: cited from earlier work.

Turning to Purvalanol A, the “Inhibitory potency CDK2” value is on record as “+++”.
